Experimental data: patent US10357493B2, “Metalloenzyme inhibitor compounds” (Selenity Therapeutics (Bermuda), Ltd., priority 2017, dated 2019)

Amino acid sequences for entries named in this document (tags omitted).
UniProt Q92769, whole entry: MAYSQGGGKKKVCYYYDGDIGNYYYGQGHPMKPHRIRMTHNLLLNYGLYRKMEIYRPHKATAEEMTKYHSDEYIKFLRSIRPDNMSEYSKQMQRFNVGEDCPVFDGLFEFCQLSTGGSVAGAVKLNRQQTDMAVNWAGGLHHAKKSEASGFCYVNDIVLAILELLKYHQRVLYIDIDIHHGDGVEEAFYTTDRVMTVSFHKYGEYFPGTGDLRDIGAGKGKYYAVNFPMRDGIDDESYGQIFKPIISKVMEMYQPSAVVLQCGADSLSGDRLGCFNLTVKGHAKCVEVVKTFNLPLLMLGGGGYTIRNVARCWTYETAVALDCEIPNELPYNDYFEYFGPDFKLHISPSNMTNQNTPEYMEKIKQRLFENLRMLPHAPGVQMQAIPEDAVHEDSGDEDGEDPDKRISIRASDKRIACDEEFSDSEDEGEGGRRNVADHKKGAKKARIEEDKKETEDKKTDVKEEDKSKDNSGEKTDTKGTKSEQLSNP
UniProt O15379, whole entry: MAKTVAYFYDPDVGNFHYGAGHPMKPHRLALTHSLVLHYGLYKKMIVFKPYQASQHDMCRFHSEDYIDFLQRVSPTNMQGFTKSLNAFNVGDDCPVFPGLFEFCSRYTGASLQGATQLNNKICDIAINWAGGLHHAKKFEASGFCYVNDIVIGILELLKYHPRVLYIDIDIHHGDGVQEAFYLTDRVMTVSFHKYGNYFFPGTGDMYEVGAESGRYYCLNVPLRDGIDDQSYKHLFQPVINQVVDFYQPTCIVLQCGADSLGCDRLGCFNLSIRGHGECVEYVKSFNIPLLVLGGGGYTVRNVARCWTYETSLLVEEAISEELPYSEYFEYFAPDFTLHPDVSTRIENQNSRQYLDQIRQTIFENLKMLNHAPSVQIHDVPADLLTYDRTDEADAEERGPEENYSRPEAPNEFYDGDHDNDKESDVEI
UniProt P56524, whole entry: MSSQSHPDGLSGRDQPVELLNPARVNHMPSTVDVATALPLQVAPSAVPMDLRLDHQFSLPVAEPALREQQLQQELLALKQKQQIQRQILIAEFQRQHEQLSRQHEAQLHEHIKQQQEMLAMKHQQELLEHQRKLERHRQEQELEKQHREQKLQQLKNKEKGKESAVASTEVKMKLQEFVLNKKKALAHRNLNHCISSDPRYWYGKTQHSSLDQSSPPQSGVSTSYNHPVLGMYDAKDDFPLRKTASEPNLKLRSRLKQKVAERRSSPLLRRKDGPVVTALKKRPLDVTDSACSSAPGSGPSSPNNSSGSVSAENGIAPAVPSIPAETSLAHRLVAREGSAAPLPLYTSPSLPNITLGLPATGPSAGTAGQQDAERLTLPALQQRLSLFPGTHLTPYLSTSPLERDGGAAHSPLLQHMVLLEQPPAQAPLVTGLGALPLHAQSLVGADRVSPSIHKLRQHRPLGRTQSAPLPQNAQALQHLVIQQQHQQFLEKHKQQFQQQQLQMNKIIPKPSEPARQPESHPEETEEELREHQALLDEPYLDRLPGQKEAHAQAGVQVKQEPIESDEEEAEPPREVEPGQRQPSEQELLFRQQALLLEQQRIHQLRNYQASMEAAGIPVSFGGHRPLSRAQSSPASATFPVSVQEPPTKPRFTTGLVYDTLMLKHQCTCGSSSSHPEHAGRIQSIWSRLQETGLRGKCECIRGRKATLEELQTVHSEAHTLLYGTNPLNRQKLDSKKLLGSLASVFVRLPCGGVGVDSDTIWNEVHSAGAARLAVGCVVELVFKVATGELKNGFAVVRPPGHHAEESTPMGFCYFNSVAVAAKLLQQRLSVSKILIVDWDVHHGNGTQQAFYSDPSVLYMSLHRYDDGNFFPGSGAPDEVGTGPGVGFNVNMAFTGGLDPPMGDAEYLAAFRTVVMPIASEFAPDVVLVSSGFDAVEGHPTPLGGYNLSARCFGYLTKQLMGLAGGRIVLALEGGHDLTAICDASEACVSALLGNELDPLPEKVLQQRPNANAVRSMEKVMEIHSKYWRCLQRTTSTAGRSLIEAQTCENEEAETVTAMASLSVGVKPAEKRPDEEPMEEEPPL
UniProt Q9UQL6, whole entry: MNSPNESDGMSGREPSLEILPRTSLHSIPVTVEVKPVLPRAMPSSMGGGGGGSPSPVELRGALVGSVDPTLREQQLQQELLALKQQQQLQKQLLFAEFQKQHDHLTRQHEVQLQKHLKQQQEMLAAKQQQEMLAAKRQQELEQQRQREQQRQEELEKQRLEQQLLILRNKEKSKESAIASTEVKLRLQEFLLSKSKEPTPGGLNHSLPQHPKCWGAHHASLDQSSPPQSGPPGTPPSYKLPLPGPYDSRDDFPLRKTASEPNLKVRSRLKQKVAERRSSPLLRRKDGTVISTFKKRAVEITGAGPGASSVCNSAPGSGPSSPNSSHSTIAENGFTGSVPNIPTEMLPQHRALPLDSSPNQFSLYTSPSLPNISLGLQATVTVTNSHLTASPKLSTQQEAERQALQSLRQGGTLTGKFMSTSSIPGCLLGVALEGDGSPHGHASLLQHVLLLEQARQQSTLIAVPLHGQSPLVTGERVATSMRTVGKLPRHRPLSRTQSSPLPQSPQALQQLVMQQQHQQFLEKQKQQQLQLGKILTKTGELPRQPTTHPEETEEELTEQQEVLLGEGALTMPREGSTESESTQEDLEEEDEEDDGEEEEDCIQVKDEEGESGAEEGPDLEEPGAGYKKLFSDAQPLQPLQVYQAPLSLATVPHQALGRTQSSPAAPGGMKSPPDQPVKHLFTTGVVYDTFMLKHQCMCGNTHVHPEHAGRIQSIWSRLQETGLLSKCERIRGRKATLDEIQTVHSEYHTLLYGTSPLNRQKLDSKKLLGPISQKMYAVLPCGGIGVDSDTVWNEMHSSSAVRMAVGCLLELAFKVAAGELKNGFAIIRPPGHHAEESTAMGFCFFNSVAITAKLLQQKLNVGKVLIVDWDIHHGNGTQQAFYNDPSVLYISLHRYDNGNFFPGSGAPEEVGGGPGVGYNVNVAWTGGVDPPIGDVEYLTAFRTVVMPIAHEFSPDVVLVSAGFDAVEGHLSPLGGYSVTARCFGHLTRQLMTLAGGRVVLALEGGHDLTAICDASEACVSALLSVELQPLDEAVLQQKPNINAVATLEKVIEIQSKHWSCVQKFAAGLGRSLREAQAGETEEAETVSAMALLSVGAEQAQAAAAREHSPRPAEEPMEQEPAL
UniProt Q8WUI4, whole entry: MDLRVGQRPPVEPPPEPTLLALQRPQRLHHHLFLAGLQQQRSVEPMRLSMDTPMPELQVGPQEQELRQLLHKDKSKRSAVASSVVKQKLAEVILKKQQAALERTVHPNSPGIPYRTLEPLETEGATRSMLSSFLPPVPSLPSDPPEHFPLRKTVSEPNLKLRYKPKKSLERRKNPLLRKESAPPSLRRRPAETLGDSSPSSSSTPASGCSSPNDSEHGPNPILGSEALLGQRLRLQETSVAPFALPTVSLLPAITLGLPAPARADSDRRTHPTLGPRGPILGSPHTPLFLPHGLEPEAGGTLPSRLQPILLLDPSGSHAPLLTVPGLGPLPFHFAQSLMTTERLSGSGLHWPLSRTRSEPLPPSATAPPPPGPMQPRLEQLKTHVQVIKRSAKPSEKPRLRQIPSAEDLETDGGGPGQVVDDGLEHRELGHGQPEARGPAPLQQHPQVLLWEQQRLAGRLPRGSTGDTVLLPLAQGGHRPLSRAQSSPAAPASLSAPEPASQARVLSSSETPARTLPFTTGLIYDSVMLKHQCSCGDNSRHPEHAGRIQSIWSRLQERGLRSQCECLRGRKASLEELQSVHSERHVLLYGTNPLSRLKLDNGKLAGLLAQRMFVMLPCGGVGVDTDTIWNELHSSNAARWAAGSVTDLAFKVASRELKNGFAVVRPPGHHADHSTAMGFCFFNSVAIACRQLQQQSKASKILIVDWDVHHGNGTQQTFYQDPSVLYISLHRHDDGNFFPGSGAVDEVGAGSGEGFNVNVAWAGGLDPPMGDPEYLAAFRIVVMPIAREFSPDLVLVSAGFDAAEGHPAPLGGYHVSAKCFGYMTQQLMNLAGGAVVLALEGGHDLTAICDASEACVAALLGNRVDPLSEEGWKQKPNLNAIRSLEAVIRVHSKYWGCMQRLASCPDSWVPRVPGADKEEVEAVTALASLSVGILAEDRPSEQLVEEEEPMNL
UniProt Q9BY41, whole entry: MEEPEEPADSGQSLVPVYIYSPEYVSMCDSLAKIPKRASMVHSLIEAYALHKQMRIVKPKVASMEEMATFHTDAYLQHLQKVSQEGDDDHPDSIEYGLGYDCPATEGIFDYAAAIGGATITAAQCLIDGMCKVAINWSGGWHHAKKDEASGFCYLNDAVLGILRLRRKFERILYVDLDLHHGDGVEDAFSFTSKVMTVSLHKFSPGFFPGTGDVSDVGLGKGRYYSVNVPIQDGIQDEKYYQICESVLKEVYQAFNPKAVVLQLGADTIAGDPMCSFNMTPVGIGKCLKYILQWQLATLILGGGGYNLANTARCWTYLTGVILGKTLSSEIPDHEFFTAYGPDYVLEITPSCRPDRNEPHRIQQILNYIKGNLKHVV
UniProt Q9UKV0, whole entry: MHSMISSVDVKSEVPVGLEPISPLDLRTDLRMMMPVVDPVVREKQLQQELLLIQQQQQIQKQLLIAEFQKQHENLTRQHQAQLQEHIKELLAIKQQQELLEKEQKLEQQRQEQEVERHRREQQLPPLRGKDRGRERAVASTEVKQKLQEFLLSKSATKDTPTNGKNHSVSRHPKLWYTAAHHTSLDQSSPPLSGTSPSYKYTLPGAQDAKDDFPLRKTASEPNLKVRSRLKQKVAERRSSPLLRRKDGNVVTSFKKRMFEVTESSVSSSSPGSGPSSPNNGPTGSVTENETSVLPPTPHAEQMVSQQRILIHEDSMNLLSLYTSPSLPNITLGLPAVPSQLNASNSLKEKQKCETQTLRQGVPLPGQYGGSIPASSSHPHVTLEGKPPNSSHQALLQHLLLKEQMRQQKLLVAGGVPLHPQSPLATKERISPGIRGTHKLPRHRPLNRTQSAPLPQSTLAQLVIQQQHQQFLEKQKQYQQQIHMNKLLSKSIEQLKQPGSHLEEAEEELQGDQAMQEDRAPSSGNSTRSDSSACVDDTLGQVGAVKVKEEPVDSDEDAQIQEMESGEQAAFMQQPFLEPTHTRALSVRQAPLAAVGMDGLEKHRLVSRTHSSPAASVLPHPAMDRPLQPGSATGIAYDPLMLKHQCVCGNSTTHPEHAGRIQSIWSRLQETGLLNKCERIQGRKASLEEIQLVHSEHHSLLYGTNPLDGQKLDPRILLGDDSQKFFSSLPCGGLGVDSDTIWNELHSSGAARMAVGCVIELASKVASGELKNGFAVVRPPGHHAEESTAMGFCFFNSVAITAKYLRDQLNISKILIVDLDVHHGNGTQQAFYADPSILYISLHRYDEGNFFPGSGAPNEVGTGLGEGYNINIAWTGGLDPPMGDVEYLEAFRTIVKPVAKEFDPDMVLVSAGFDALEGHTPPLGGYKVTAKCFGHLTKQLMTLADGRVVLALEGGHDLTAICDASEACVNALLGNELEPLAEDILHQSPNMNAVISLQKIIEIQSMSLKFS
UniProt Q969S8, whole entry: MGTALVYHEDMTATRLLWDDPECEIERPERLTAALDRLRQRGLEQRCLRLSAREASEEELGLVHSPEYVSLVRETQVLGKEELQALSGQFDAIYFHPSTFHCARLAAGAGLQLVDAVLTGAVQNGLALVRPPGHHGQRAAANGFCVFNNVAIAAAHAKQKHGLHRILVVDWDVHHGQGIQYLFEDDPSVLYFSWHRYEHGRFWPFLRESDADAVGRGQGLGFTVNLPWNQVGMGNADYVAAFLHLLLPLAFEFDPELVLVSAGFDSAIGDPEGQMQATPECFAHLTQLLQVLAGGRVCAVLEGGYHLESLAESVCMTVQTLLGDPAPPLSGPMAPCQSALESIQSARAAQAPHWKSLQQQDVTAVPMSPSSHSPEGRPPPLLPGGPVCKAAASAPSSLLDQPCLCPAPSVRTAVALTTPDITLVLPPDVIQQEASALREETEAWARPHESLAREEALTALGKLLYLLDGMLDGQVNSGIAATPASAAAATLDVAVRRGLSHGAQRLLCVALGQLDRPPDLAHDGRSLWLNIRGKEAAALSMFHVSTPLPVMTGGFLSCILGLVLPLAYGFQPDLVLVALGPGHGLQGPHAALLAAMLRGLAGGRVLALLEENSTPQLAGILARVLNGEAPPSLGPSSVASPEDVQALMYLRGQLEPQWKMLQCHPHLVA
UniProt Q96DB2, whole entry: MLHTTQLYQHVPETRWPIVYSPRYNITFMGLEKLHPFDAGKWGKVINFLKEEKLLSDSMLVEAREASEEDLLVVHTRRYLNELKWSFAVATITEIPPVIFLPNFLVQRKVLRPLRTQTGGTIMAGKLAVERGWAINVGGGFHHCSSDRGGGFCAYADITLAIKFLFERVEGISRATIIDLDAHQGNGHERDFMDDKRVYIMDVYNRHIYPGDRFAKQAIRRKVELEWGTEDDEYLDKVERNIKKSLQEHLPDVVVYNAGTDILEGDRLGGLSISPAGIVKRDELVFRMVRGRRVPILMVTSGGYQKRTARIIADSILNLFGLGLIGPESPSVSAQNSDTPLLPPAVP

Experiments:
[1] = biological target: HDAC2 (Homo sapiens (Human), UniProt Q92769); experiment: HDAC2 enzymatic assay; conditions: read-out: HDAC2 IC50; Comparison Results
[2] = biological target: HDAC3/NCOR2 (Homo sapiens (Human), UniProt O15379); experiment: HDAC3 enzymatic assay; conditions: read-out: HDAC3 IC50; Comparison Results
[3] = biological target: HDAC4 (Homo sapiens (Human), UniProt P56524); experiment: HDAC4 enzymatic assay; conditions: read-out: HDAC4 IC50; Comparison Results
[4] = biological target: HDAC5 (Homo sapiens (Human), UniProt Q9UQL6); experiment: HDAC5 enzymatic assay; conditions: read-out: HDAC5 IC50; Comparison Results
[5] = biological target: HDAC7 (Homo sapiens (Human), UniProt Q8WUI4); experiment: HDAC7 enzymatic assay; conditions: read-out: HDAC7 IC50; Comparison Results
[6] = biological target: HDAC8 (Homo sapiens (Human), UniProt Q9BY41); experiment: HDAC8 enzymatic assay; conditions: read-out: HDAC8 IC50; Comparison Results
[7] = biological target: HDAC9 (Homo sapiens (Human), UniProt Q9UKV0); experiment: HDAC9 enzymatic assay; conditions: read-out: HDAC9 IC50; Comparison Results
[8] = biological target: HDAC10 (Homo sapiens (Human), UniProt Q969S8); experiment: HDAC10 enzymatic assay; conditions: read-out: HDAC10 IC50; Comparison Results
[9] = biological target: HDAC11 (Homo sapiens (Human), UniProt Q96DB2); experiment: HDAC11 enzymatic assay; conditions: read-out: HDAC11 IC50; Comparison Results

Measured: IC50

FC(F)(F)c1nnc(-c2cnc(NC3(c4ccccc4)CC3)nc2)o1 [Example 1, N-(1-phenylcyclopropyl)-5-(5-(trifluoromethyl)-1,3,4-oxadiazol-2-yl) pyrimidin-2-amine]
> 30 µM: all assays above

FC(F)c1nnc(-c2cnc(NC3(c4ccccc4)CC3)nc2)o1 [Example 4, 5-(5-(difluoromethyl)-1,3,4-oxadiazol-2-yl)-N-(1-phenylcyclopropyl)pyrimidin-2-amine]
> 30 µM: all assays above
